{"sequences": {"note": "By UniProt entry, the sequences of proteins in these tests, tags left out.", "UniProt P47746, whole entry": "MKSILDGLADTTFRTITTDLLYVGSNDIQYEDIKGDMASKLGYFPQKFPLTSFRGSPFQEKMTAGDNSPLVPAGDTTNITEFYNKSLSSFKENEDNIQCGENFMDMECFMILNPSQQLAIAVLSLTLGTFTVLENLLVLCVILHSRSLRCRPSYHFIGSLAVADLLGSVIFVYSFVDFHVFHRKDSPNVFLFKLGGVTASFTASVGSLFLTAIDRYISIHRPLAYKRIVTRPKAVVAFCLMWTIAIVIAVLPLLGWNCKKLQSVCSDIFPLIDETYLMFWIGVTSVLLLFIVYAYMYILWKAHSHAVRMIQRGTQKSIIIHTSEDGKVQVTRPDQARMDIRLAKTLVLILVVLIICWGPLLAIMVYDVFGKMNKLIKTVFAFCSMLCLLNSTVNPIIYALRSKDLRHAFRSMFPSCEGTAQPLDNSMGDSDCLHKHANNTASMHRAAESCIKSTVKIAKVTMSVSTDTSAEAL"}, "source": "patent US7371751B2", "about": "“Thiazole derivatives” (Hoffmann-La Roche Inc., priority 2003, dated 2008)", "origin": "cited, not measured here", "molecular_target": "CB1 receptor (Mus musculus, UniProt P47746)", "settings": "wild-type versus CB1 receptor knockout mice; cited from earlier work", "data": [{"compound": "Cc1c(C(=O)NN2CCCCC2)nn(-c2ccc(Cl)cc2Cl)c1-c1ccc(Cl)cc1", "note": "[SR 141716]", "values": [{"measurement": "food intake", "value": "reduces food intake in wild-type but not knockout mice"}]}]}
